Biological target: GR (Homo sapiens, UniProt P04150)
Test: GR binding
Details: read-out: Mean GR Binding IC50

The chains behind the UniProt entries cited, without tags or fusion partners.
UniProt P04150, whole entry: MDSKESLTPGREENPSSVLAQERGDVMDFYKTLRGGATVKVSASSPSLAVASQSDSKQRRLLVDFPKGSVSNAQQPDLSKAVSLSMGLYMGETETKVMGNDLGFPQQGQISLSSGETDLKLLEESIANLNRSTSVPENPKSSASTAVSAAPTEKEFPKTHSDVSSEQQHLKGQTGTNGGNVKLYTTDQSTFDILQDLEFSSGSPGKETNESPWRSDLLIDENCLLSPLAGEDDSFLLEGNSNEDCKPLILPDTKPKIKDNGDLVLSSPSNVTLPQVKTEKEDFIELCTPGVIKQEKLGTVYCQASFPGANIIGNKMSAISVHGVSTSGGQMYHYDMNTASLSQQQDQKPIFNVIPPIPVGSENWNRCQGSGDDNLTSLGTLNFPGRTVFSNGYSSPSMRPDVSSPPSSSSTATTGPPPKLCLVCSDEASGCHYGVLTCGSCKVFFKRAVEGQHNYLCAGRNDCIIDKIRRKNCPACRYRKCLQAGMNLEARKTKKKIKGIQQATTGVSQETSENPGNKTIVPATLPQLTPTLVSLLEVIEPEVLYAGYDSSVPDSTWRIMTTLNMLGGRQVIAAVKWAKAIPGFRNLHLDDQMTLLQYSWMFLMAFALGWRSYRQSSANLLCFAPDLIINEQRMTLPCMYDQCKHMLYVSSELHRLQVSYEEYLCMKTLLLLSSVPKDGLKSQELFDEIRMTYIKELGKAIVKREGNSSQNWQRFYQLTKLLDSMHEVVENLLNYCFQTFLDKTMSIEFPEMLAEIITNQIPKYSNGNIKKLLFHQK

In the case of `O=c1[nH]c(C2CC=C(c3cccnc3C(F)(F)F)CC2)c(Cc2ccccc2)c(=O)[nH]1` (stereo not shown) [Example 14], the IC50 is reported as 459 nM.

Reference: patent US12018001B2, “Pyrimidine cyclohexenyl glucocorticoid receptor modulators” (priority 2018, dated 2024)
